Experimental findings from patent US20040034104A1, “2,2-Diphenylbutanamide derivatives and medicines containing the same” (priority 2000, published 2004) are described below.

For this test, the system named is opioid receptor (μ-opioid). The test can be described thus: Opioid receptor agonist activity in guinea pig ileum longitudinal muscle specimens. The settings on record: agonist activity relative to DAMGO (=1.0); ileum longitudinal muscle specimens with Auerbach's plexus; method of Oka et al. As for the experimental part:
Hartley male guinea pigs (body weight: about 500 g) wer employed. The ileum (15-30 cm) was removed from the ileocecum of each guinea pig, to thereby prepare longitudinal muscle specimens having Auerbach's plexus. Opioid receptor activity of the test drugs was measured through a method proposed by Oka et al. (Eur. J. Pharmacol., 77; 137-141, 1982). Agonist activity is represented by the efficacy relative to the activity of DAMGO ([D-Ala^2, N-MePhe^4, Gly^5-ol]-enkephalin), which is a selective μ-opioid agonist.

The compound `CN1CC[C@]23c4c5ccc(O)c4O[C@H]2[C@@H](O)C=C[C@H]3[C@H]1C5` [Morphine, morphine, reference compound] came in with a Relative potency of 0.14.
